Assay [1] concerns IL2 and IL15 signaling pathways (STAT5 phosphorylation) in spleen cells. The experiment in a line: Flow cytometry detection of T cell pSTAT5 expression after cytokine stimulation, IL2RB/IL2RG double-gene humanized mice. It counts as cell-based, mouse. The settings on record: for T cell pSTAT5 expression: spleen, 200 U human IL2, 30 minutes. As for the experimental part:
(§1) The IL2 and IL15 signaling pathways in IL2RB/IL2RG double-gene humanized mice were detected by flow cytometry. Specifically, three 6-week old female C57BL/6 wild-type mice (+/+), three IL2RB/IL2RG double-gene humanized heterozygous mice (H/+; H/+), and three IL2RB/IL2RG double-gene humanized homozygous mice (H/H; H/H) were selected. Spleen tissues were collected and stimulated by 200 U human IL2 (Human IL-2 Protein, Tag Free), 10 ng/ml human IL15/IL15RA complex (Human IL-15 Protein, premium grade and Human IL-15 R alpha/CD215 Protein, Fc Tag mixed at a volume ratio of 1:1), or 10 ng/ml mouse IL15/IL15RA complex (Recombinant Mouse IL-15 Protein and Recombinant Mouse IL-15R alpha Fc Chimera Protein, CF mixed at a volume ratio of 1:1) for 30 minutes. eBioscience™ Fixable Viability Dye eFluor™ 780, Brilliant Violet 711™ anti-mouse TCR β chain Antibody, Phospho-Stat5 (Tyr694) (D47E7) XP® Rabbit mAb (used as primary antibodies) and Anti-rabbit IgG (H+L), F(ab′)2 Fragment (Alexa Fluor® 488 Conjugate) (used as a secondary antibody) were used to fix and stain the cells, followed by flow cytometric detection. No primary antibody was added to the corresponding secondary antibody control groups.
A general note: A flow cytometer gives signals particle by particle.

In assay [2] the test system is IL2 signaling pathway (STAT5 phosphorylation) in mouse splenocytes. In words: Flow cytometry detection of pSTAT5 expression in T cells and NK cells after IL2 stimulation, IL2RB/IL2RG/IL15/IL15RA four-gene humanized mice. It counts as cell-based. The settings on record: for pSTAT5 expression (CD4+ T cell) / pSTAT5 expression (CD8a+ cell) / pSTAT5 expression (NK1.1+ cell): splenocytes, 10 μg/mL IL2. How it is done:
as §1
The IL2 and IL15 signaling pathways in IL2RB/IL2RG/IL15/IL15RA four-gene humanized mice were detected by flow cytometry. Similar to the IL2 and IL15 signaling pathway detection method for IL2RB/IL2RG double-gene humanized mice described herein, either 10 μg/mL human IL2 or mouse IL2 (Biotinylated Mouse IL-2 Protein) was used to stimulate mouse splenocytes. The cells were stained with: Brilliant Violet 421™ anti-mouse NK-1.1 Antibody, APC anti-mouse CD4 Antibody, and/or Alexa Fluor 700 anti-mouse CD8a Antibody, and then subjected to flow cytometry analysis.

Setting [3] is: IL2RB/IL2RG/IL15/IL15RA four-gene humanized homozygous mice (H/H).

These results are taken from patent publication US20250302016A1, “GENETICALLY MODIFIED NON-HUMAN ANIMAL WITH HUMAN OR CHIMERIC GENES” (Biocytogen Pharmaceuticals (Beijing) Co., Ltd., priority 2022, published 2025).

As for “Human IL2: Human IL-2 Protein, Tag Free, purchased from ACROBiosystems”, the “T cell pSTAT5 expression” value turned out to be 35.7% in assay [1] (IL2RB/IL2RG double-gene humanized heterozygous mice (H/+; H/+)), 33.7% in assay [1] (IL2RB/IL2RG double-gene humanized homozygous mice (H/H; H/H)) and 26.6% in assay [1] (wild-type C57BL/6 mice (+/+)). The “phosphorylation of STAT5 after stimulation (in words)” value in assay [1] (spleen cells of +/+, H/+, H/+ and H/H, H/H mice) was “phosphorylation of STAT5 can be detected”. Besides, the “pSTAT5 expression (CD4+ T cell)” value was 23.8% in assay [2] (setting [3]) and 55.2% in assay [2] (wild-type C57BL/6 mice (+/+)). For the same substance, the “pSTAT5 expression (CD8a+ cell)” value in assay [2] (setting [3]) came out at 93.5%; in assay [2] (wild-type C57BL/6 mice (+/+)) it was 94.5%. The entries for the “pSTAT5 expression (NK1.1+ cell)” value in assay [2] (setting [3]) and in assay [2] (wild-type C57BL/6 mice (+/+)) were 81.9% and 83.2%, respectively. The “phosphorylated expression of STAT5 after stimulation (in words)” value in assay [2] (splenocytes of +/+ and four-gene humanized homozygous (H/H) mice, 10 μg/mL) is given as “phosphorylated expression of STAT5 was detected”.
